Test results reported in patent US20250382269A1 (CFD Research Corporation, priority 2019, published 2025).

Key:
[1] = tested on: B. subtilis / cytotoxicity EC50; assay: Selectivity index (SI) using B. subtilis MICs
Method: (§1) Additionally, the antimicrobial compounds were analyzed for cytotoxicity. […] We utilized the standard MTT assay (Promega CellTiter 96) and GraphPad Prism 7 software to determine EC50 values for each analogue. Briefly, 20,000 HepG2 cells in 200 μl of the ATCC recommended media were seeded in each well of a 96-well plate with a moisture barrier created in the outermost wells. The cells were allowed to attach overnight at 37° C., and then observed under phase contrast microscopy for proper morphological characteristics. If cells appeared healthy and attached, test compounds were added in 7 concentrations from […] (n=3) from freshly prepared DMSO stock plates. […] Once incubations were complete, the spectrophotometric absorbance of the samples was measured at a wavelength of 595 nm. […] For the HepaRG assay, NoSpin HepaRG™ cells (Lonza, cat #NSHPRG) were thawed and plated with 20,000 cells per well. They were allowed to attach for 4 h (optimal DME profile per Lonza's testing) before dosing following the identical protocol as above.

HepaRG cells = assay: Cytotoxicity MTT assay in HepaRG cells; type: cell-based, human; conditions: Table 1; HepaRG cytotoxicity versus pathogen MIC
Method: as §1

[2] = tested on: T. rubrum, S. aureus, R. mucosa, S. epidermidis; conditions: on polyester fabric; FIGS. 5A-5B
[3] = tested on: pathogens and skin commensals; conditions: Table 1

Row | SMILES | SI (selectivity index) [1] | Selectivity Index (SI) (HepaRG cells) | selectivity for inhibiting pathogenic microbes over commensal microbes [2] | Selectivity Pathogens to commensal [3]
1 | Oc1ccc(Sc2c[nH]c3ccccc23)cc1 [Compound 156I, 4-((1H-indol-3-yl)thio)phenol] | 0.6 | >1 | selectively inhibits pathogens T. rubrum over commensal microbes R. mucosa and S. epidermidis | >4
2 | Oc1ccccc1Sc1c[nH]c2ccc(Br)cc12 [Compound 174AI, 2-((5-bromo-1H-indol-3-yl)thio)phenol] | 35.1 |  |  | 
3 | Cc1[nH]c2ccc(Br)cc2c1Sc1ccccc1Br [Compound 174AZ, 5-bromo-3-((2-bromophenyl)thio)-2-methyl-1H-indole] | 25.7 |  |  | 
4 | Brc1ccc2[nH]cc(Sc3ccccc3Br)c2c1 [Compound 174I, 5-bromo-3-((2-bromophenyl)thio)-1H-indole] | 32.6 |  |  | 
5 | Nc1ccccc1Sc1c[nH]c2ccc(Br)cc12 [Compound 174M, 2-((5-bromo-1H-indol-3-yl)thio)aniline] | 42.4 | 43->85 |  | 
